Target: goose δ-crystallin E294L mutant (goose) (UniProt P33110)
Experiment: AUC; sedimentation velocity, 20 °C, 130,000 x g, An50 Ti rotor; radial scans every 5 min for about 3 h

stoichiometry N: 4
Substance: goose δ-crystallin E294L mutant (from UniProt P33110 2-466) (natural protein)

— paper PMC2779060
